B1: Carbonic anhydrase 14 (Homo sapiens), Q9ULX7 (protein)
chain: MLFSALLLEVIWILAADGGQHWTYEGPHGQDHWPASYPECGNNAQSPIDIQTDSVTFDPDLPALQPHGYDQPGTEPLDLHNNGHTVQLSLPSTLYLGGLPRKYVAAQLHLHWGQKGSPGGSEHQINSEATFAELHIVHYDSDSYDSLSEAAERPQGLAVLGILIEVGETKNIAYEHILSHLHEVRHKDQKTSVPPFNLRELLPKQLGQYFRYNGSLTTPPCYQSVLWTVFYRRSQISMEQLEKLQGTLFSTEEEPSKLLVQNYRALQPLNQRMVFASFIQAGSSYTTGEMLSLGVGILVGCLCLLLAVYFIARKIRKKRLENRKSVVFTSAQATTEA
B2: Carbonic anhydrase 7 (Homo sapiens), P43166 (protein)
chain: MTGHHGWGYGQDDGPSHWHKLYPIAQGDRQSPINIISSQAVYSPSLQPLELSYEACMSLSITNNGHSVQVDFNDSDDRTVVTGGPLEGPYRLKQFHFHWGKKHDVGSEHTVDGKSFPSELHLVHWNAKKYSTFGEAASAPDGLAVVGVFLETGDEHPSMNRLTDALYMVRFKGTKAQFSCFNPKCLLPASRHYWTYPGSLTTPPLSESVTWIVLREPICISERQMGKFRSLLFTSEDDERIHMVNNFRPPQPLKGRVVKASFRA

Columns and labels:
Conditions in all cases: Homo sapiens; 10 uM
[1] = substrate: N[C@H](Cc1ccccc1)C(=O)O
[2] = substrate: N[C@@H](Cc1ccccc1)C(=O)O
[3] = substrate: N[C@H](Cc1ccccc1)C(=O)O; remark: listed apart in the source
[4] = substrate: N[C@@H](Cc1ccccc1)C(=O)O; remark: listed apart in the source

Row | Protein | kcat [1] | kcat [2] | kcat [3] | kcat [4]
1 | B1 | 6.1 10^5/s | 12.5 10^5/s |  | 
2 | B2 |  |  | 15.8 10^5/s | 14.6 10^5/s
